Measurements as given in PubChem BioAssay AID1778 (Sanford-Burnham Center for Chemical Genomics, 2009).
Some of the results follow. Measured potencies and affinities stand elsewhere. Active and inactive are the calls of the source. Cut-off read from the data, not from the text of the source: active = inhibition above about 50%; inactive = the rest.

Amino acid sequences for entries named in this document (tags omitted). A change or cut given only in a name is not applied to a line headed by its entry.
UniProt P41145: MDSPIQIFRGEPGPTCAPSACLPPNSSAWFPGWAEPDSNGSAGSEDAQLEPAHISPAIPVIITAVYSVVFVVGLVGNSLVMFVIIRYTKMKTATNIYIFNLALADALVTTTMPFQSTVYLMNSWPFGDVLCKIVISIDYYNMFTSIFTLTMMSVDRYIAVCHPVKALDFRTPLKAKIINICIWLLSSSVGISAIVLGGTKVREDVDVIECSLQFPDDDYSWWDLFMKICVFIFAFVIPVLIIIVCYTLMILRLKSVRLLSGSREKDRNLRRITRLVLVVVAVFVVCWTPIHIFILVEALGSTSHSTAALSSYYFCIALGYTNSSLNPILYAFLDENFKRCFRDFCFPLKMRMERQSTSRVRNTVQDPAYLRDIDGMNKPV

target: Kappa-type opioid receptor (Homo sapiens) (UniProt P41145); experiment: kappa opioid receptor blockers – cell-based, luminescence, uHTS (AID 1778); conditions: KOR beta-arrestin recruitment, antagonist mode, at 10 µM, active compounds read high

| SMILES | inhibition |
| --- | --- |
| N#CCC(=O)N/N=C\c1cccc(OC/C=C/c2ccccc2)c1 | inactive: -8.4% |
| CCc1cccc(C)c1N(C(=O)Cn1c(COC)nc2ccccc21)C(C)COC (stereo unspecified) | inactive: 0.2% |
| O=[N+]([O-])c1ccc2c(c1)nc1n2CCN(c2ccccc2)C1 | inactive: 41.2% |
| O=C(c1ccccc1)N1CCn2c(nc3ccccc32)C1 | inactive: 1.5% |
| C=CCn1c(=O)c2c(nc3n2CCN3c2cccc(Cl)c2C)n(C)c1=O | inactive: 19.5% |
| CC(C)NC(=O)Cn1c(SCC(=O)NC2CCCC2)nc2ccccc21 | inactive: -20.9% |
| COc1ccc2c(c1)C1(Nc3ccccc3-c3nc4ccccc4n31)C(=O)N2C (stereo unspecified) | inactive: -40% |
| CC(C)[C@H](NC(=O)N1CCn2c1nc1ccccc12)C(=O)NC1CC1 | inactive: -20.2% |
| COc1cccc(NC(=O)[C@H](CC(C)C)NC(=O)N2CCn3c2nc2ccccc23)c1 | inactive: -61.5% |
| CCC(C(=O)NC1CCCCC1)n1c(SCc2cccc(C)c2)nc2ccncc21 (stereo unspecified) | inactive: 30.9% |
| c1ccc(Cn2c(CNc3nc4ccccc4n3CCN3CCOCC3)nc3ccccc32)cc1 | inactive: 6.1% |
| O=C(Cn1cnc2ccccc21)Nc1ccc(SC(F)F)cc1 | inactive: -14.1% |
| CC(NC(=O)Cn1cnc2c1c(=O)n(C)c(=O)n2C)c1ccccc1 (stereo unspecified) | inactive: 12.3% |
| O=C(C1CCCN(S(=O)(=O)c2cccnc2)C1)N1CCn2c1nc1ccccc12 (stereo unspecified) | inactive: -67.9% |
| COc1ccc(/C=N/NC(=O)Cn2cnc3c2c(=O)n(C)c(=O)n3C)c(OC)c1OC | inactive: 19.3% |
| O=C(Cn1cnc2ccccc21)Nc1ccc(F)c(F)c1 | inactive: -11.5% |
| COC(=O)c1cccc(NC(=O)Cn2cnc3c2c(=O)n(C)c(=O)n3C)c1 | inactive: 5.2% |
| O=C(COc1ccccc1)OC1CN2CCC1CC2 (stereo unspecified) | inactive: -22.4% |
| O=C(Nc1ccncc1[N+](=O)[O-])c1ccc([N+](=O)[O-])cc1[N+](=O)[O-] | inactive: 3.1% |
| COc1cccc(CNc2nc3ccccc3n2CCN2CCCCC2)c1OC | inactive: -5.9% |
| O=C(OC1CN2CCC1CC2)c1cccc([N+](=O)[O-])c1 (stereo unspecified) | inactive: -17.7% |
| CCC(C)[C@H](NC(=O)N1CCn2c1nc1ccccc12)C(=O)NCC1CCCO1 (stereo partly specified) | inactive: -22.2% |
| CCCCOc1ccccc1NC(=O)Cn1c(-c2nonc2N)nc2ccccc21 | inactive: -158% |

| SMILES | inhibition |
| --- | --- |
| CCc1cccc(C)c1N(C(=O)Cn1c(=O)[nH]c2ccccc21)C(C)COC (stereo unspecified) | inactive: -32.4% |
| CCN(CC)CCn1c(NC(=O)c2ccc(C(F)(F)F)cc2)nc2ccccc21 | inactive: -42.4% |
| Cn1c(=O)c2c(nc(CN3CCOCC3)n2CCN2CCOCC2)n(C)c1=O | inactive: -37.5% |
| O=S(=O)(Nc1ccc2c(c1)nc1n2CCN(Cc2ccccc2)C1)c1ccc(F)cc1 | inactive: -14.7% |
| CC1Cc2ccccc2N1C(=O)Cn1cnc2ccccc21 (stereo unspecified) | inactive: -7.9% |
| CCOC(=O)c1ccc(NC(=O)C(C)(CCl)SC)cc1 (stereo unspecified) | inactive: 3% |
| O=C(Cn1c(-c2cscn2)nc2ccccc21)Nc1cc(F)ccc1F | inactive: 27.9% |
| Cc1ccc2c(c1)C1CN(C)CCC1N2C(=O)COc1ccc(S(=O)(=O)N2CCOCC2)cc1 (stereo unspecified) | inactive: -38.4% |
| COc1ccc(CCNC(=O)[C@H](CC(C)C)NC(=O)N2CCn3c2nc2ccccc23)cc1OC | inactive: -19% |
| CCC(NC(=O)Cn1cnc2c(=O)n(C)c(=O)n(C)c21)c1ccccc1 (stereo unspecified) | inactive: -30.8% |
| O=C1Cn2c(nc3ccccc32)-c2ccccc2N1 | inactive: -24.7% |
| CCN(CC)C(=O)Cn1cnc2c1c(=O)n(C)c(=O)n2C | inactive: 9.7% |
| CC(C)N(C(=O)Cn1c(Cl)nc2ccccc21)C(C)C | inactive: -19.2% |
| CCc1ccc(NC(=O)Cn2c(SC)nc3ccccc32)cc1 | inactive: -16.1% |
| CCC(C)N(CC(C)C)C(=S)SC(NC(C)=O)C(Cl)(Cl)Cl (stereo unspecified) | inactive: -50.2% |
| CC1CC(C)CN(C(=O)Cn2c(SCC(=O)N3CCc4ccccc4C3)nc3ccccc32)C1 (stereo unspecified) | inactive: 5.3% |
| CCN1C(=O)C2(Nc3ccccc3-c3nc4ccccc4n32)c2cc(OC)ccc21 (stereo unspecified) | inactive: 9.8% |
| Cc1nc2ccccc2n1CC(=O)N/N=C\c1ccccn1 | inactive: -17.7% |
| CC(C)NC(=O)Cn1c(SCC(=O)N2CCCc3ccccc32)nc2ccccc21 | inactive: 9.9% |
| Cc1ccc(NC(=O)CCC(=O)N/N=C/C=C/c2ccccc2)cc1 | inactive: 12.1% |
| Cc1ccc2c(c1)[C@@H]1CN(C)CC[C@@H]1N2C(=O)Nc1cccc(C(F)(F)F)c1 | inactive: -38% |
| CCOC(=O)c1ccccc1NC(=O)CSc1nc2ccccc2n1CC(=O)N1CCCC1 | inactive: 21.3% |
| Cc1ccc(-c2csc(NC(=O)Cn3cnc4c3c(=O)n(C)c(=O)n4C)n2)cc1C | inactive: -1.1% |

| SMILES | inhibition |
| --- | --- |
| CSc1nc2ccccc2n1CC(=O)Nc1ccccc1 | inactive: -31.5% |
| O=C(Nc1ccc2c(c1)nc1n2CCN(C2CCCCC2)C1)NC1CCCCC1 | inactive: 13.7% |
| Cc1nc2ccccc2n1CCN1CCOCC1 | inactive: -25.7% |
| Cc1ccc2c(c1)C1CN(C)CCC1N2C(=O)Cc1cccs1 (stereo unspecified) | inactive: 33.8% |
| CN1C(=O)C2(Nc3ccccc3-c3nc4ccccc4n32)c2ccccc21 (stereo unspecified) | inactive: 5% |
| CCC(C)[C@H](NC(=O)N1CCn2c1nc1ccccc12)C(=O)NCc1ccccc1 (stereo partly specified) | inactive: -12.3% |
| Cc1ccc(NC(=O)Cn2cnc3ccccc32)cc1C | inactive: -17.6% |
| COc1ccc(N2C(=O)CC(n3cnc4ccccc43)C2=O)cc1 (stereo unspecified) | inactive: -9% |
| COc1ccccc1NC(=O)Cn1cnc2c1c(=O)n(C)c(=O)n2C | inactive: -20% |
| NC(=O)CS(=O)(=O)c1nc2ccccc2n1CC(=O)N1CCCCC1 | inactive: -12.3% |
| O=C(Cn1cnc2ccccc21)NC(c1ccccc1)c1ccccc1 | inactive: -27.9% |
| Cc1c2c(nc3ccccc13)SC(C(Cl)Cl)C2 (stereo unspecified) | inactive: -7.9% |
| O=C(OC1CN2CCC1CC2)C12CC3CC(CC(C3)C1)C2 (stereo unspecified) | inactive: -4.2% |
| O=C1C2CCCCC2C(=O)N1c1ccc(NC2CCN(Cc3ccccc3)CC2)c([N+](=O)[O-])c1 (stereo unspecified) | inactive: -6.4% |
| CCn1cc(C(=O)N2CCn3c(nc4ccccc43)C2)c(=O)c2ccc(C)nc21 | inactive: -31.7% |
| Cn1c(=O)c2c(nc(Cl)n2CC(=O)N2CCCCC2)n(C)c1=O | inactive: -14.4% |
| Cc1cc(=O)[nH]c(N[N+](=O)[O-])n1 | inactive: 13.1% |
| c1ccc2c(c1)ncn2CCN1CCCCC1 | inactive: -19.3% |
| Cn1c(=O)c2c(ncn2CC(=O)Nc2nccs2)n(C)c1=O | inactive: 20% |
| C=CCSc1nnc(NC(=O)Cn2cnc3c2c(=O)n(C)c(=O)n3C)s1 | inactive: -10.4% |
| COc1ccc(CNC(=O)CCNC(=O)N2CCn3c2nc2ccccc23)cc1 | inactive: -15.7% |
| Cc1cc2ncn(C3CC(=O)N(C)C3=O)c2cc1C (stereo unspecified) | inactive: 19.3% |
| Cc1ccc2c(c1)C1CN(C)CCC1N2C(=S)Nc1ccc(Cl)cc1Cl (stereo unspecified) | inactive: -1.2% |

| SMILES | inhibition |
| --- | --- |
| Cn1c(=O)c2c(nc(NCc3ccccc3)n2CC(N)=O)n(C)c1=O | inactive: 26.4% |
| Cc1ccc(/C=N/NC(=O)Cn2cnc3ccccc32)o1 | inactive: 25.5% |
| CC(C)N(C(=O)Cn1c(-c2ccccc2Cl)nc2ccccc21)c1ccccc1 | inactive: 33.1% |
| Cn1c(=O)[nH]c(=O)c2c1nc(N1CCCCCC1)n2CCN1CCCCCC1 | inactive: -48.9% |
| CCOC(=O)c1cccc(NC(=O)Cn2c(CC(=O)NC)nc3ccccc32)c1 | inactive: 26.1% |
| CSCC[C@H](NC(=O)N1CCn2c1nc1ccccc12)C(=O)NCc1ccccc1 | inactive: -76.5% |
| C(=N\c1nc2ccccc2n1CCN1CCCCC1)/c1cccs1 | inactive: 15.9% |
| Cn1c(=O)[nH]c(=O)c2c1nc(CN1CCN(c3ccc(F)cc3)CC1)n2CCN1CCOCC1 | inactive: 16.1% |
| COc1ccc2nc(NP(=O)(c3ccccc3)c3ccccc3)sc2c1 | inactive: -25.2% |
| CCCn1c(=O)[nH]c(=O)c2c1nc(-c1ccc3c(c1)OCCO3)n2CCN1CCOCC1 | inactive: -16.1% |
| CC(O)CNc1nc2ccccc2n1CC(=O)N1CCN(Cc2ccccc2)CC1 (stereo unspecified) | inactive: -32% |
| CCCCNc1nc2ccccc2n1CC(=O)Nc1c(C)cccc1CC | inactive: 7.5% |
| COc1cccc(NC(=O)[C@@H](NC(=O)N2CCn3c2nc2ccccc23)C(C)C)c1 | inactive: 5% |
| COc1cc(I)ccc1[As](=O)(O)O | inactive: 10.7% |
| c1ccc(CN2CCC(Nc3nc(-c4ccccc4)nc4ccccc34)CC2)cc1 | inactive: -15.4% |
| Cc1ccc2oc(-c3cccc(NC(=O)Cn4cnc5c(=O)n(C)c(=O)n(C)c54)c3)nc2c1 | inactive: -19.3% |
| Cc1cccc(CSc2nc3ccncc3n2CC(=O)Nc2ccc(C)c(C)c2)c1 | inactive: 6.7% |
| Cc1cc2ncn(C3CC(=O)N(Cc4ccccc4)C3=O)c2cc1C (stereo unspecified) | inactive: -9.6% |
| COc1cc(NC(=O)[C@@H](NC(=O)N2CCn3c2nc2ccccc23)C(C)C)cc(OC)c1 | inactive: -25.9% |
| Nc1nonc1-c1nc2ccccc2n1CC(=O)N1CCN(c2ccc(F)cc2)CC1 | inactive: -0.9% |
| CN(c1ccccc1)S(=O)(=O)c1cccc(NC(=O)Cn2cnc3c2c(=O)n(C)c(=O)n3C)c1 | inactive: -21.1% |
| CN(C)CCn1c(=N)n(CC(O)c2ccc(Cl)c(Cl)c2)c2ccccc21 (stereo unspecified) | inactive: -2.1% |
